Tests used:
[1] = target: T1, Somatostatin receptor type 5 (Homo sapiens, UniProt P35346); test: In vitro inhibition of [125I][Leu8,D-Trp22,Tyr25] somatostatin 28 binding to human somatostatin receptor type 5 expressed in CHO-K1 cells; (n=3)
[2] = target: Somatostatin receptor type 3 (Homo sapiens, UniProt P32745); test: In vitro inhibition of [125I][Leu8,D-Trp22,Tyr25] somatostatin 28 binding to human somatostatin receptor type 3 expressed in CCL39 cells; (n=7)
[3] = target: T1, Somatostatin receptor type 5; test: In vitro inhibition of [125I][Leu8,D-Trp22,Tyr25] somatostatin 28 binding to human somatostatin receptor type 5 expressed in CHO-K1 cells; (n=6)

Amino acid sequences for entries named in this document (tags omitted). A change or cut given only in a name is not applied to a line headed by its entry.
UniProt P35346: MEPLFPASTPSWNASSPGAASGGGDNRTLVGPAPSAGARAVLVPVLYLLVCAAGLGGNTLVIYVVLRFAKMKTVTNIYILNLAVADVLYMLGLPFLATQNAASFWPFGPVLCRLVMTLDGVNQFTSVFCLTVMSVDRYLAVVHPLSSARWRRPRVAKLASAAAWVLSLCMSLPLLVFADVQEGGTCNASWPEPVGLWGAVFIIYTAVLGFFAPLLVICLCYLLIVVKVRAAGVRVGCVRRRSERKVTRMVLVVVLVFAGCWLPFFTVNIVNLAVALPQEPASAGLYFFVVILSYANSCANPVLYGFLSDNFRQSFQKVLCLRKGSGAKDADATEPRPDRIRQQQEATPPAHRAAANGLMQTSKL
UniProt P32745: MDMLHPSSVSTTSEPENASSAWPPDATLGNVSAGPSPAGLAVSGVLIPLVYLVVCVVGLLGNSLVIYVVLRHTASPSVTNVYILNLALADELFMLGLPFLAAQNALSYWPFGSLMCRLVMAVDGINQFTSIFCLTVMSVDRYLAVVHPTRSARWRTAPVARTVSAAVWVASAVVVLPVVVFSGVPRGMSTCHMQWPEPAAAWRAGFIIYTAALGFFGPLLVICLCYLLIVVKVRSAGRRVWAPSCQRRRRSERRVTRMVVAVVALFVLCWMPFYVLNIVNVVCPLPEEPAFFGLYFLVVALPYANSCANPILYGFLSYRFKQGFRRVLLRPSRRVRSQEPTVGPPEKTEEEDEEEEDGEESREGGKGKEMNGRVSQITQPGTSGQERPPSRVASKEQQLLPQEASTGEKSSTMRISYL

Work on `C[C@@H](O)[C@@H]1NC(=O)[C@H](CCCCN)NC(=O)[C@@H](Cc2c[nH]c3ccccc23)NC(=O)[C@H](Cc2ccc(O)cc2)NC(=O)[C@@H](NC(=O)[C@@H](Cc2ccccc2)NC(=O)CN2CCN(CC(=O)O)CCN(CC(=O)O)CCN(CC(=O)O)CC2)CSSC[C@@H](C(=O)N[C@H](CO)[C@@H](C)O)NC1=O` yielded an IC50 [1] of 114 nM, an IC50 [2] of 613 nM and an IC50 [3] of 73 nM.
